# Target: heparan sulfate proteoglycan (HSPG) on the surface of human cells
# Test: GFP/DAPI fluorescence ratio on human smooth muscle primary cells (SMC)
substance,measurement,value
N-terminal GFP-tagged HlpA (histone-like protein A from Streptococcus gallolyticus) (from UniProt P42212 1-238),fold weaker binding affinity than to colorectal cell lines,6 fold

# — US20210393705A1
